Results from patent publication US7056911B1, “Dibenz[B,F]azepine compounds, pharmaceutical compositions comprising same and methods of use thereof” (Dana-Farber Cancer Institute, priority 1999, dated 2006).

Columns and labels:
[1] = molecular target: T1, Toxoplasma gondii dihydrofolate reductase (Toxoplasma gondii, UniProt Q07422); type: biochemical; settings: ratio of IC50 values; cmpds 6 and 7 from mean values
T1 sequence (Q07422 1-610): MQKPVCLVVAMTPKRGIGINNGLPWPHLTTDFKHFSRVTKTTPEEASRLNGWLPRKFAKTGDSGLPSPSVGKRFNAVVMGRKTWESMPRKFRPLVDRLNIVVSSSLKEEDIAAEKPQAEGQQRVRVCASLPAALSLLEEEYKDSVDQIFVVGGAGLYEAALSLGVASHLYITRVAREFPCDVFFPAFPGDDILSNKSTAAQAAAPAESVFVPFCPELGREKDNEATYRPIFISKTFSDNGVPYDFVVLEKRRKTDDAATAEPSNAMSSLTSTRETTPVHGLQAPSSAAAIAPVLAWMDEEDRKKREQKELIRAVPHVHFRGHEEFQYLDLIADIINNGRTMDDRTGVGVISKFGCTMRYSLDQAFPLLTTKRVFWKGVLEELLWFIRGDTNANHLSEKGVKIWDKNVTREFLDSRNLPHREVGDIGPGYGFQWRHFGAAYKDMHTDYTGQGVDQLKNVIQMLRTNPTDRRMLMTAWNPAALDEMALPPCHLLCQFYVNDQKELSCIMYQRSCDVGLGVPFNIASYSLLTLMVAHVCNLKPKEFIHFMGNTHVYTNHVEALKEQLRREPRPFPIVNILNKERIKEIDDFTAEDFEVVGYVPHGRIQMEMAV
Method: (§1) Compounds of the invention were tested for inhibition of dihydrofolate reductase (DHFR) from rat liver, Pneumocystis carinii and […] gondii. […] The DHFR inhibition assay was conducted by the procedures disclosed in Broughton, M. C. et al., Antimicrob.

[2] = molecular target: T2, Pneumocystis carinii dihydrofolate reductase (Pneumocystis carinii, UniProt P16184); type: biochemical; settings: ratio of IC50 values; cmpds 6 and 7 from mean values
T2 sequence (P16184 1-206): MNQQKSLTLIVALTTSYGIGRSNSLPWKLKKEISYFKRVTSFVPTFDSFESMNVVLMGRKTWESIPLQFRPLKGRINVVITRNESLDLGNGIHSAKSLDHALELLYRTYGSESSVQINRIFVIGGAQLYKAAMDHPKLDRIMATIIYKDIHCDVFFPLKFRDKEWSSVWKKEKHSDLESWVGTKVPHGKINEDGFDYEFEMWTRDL
Method: as §1

Compound: Nc1nc(N)c2nc(CN3c4ccccc4Oc4ccccc43)cnc2n1 [Example 4, N-[(2,4-Diaminopteridin-6-yl)methyl]phenoxazine]
- selectivity ratio rat liver/ T. gondii liver [1]: 5.9
- selectivity ratio rat liver/ P.carinii [2]: 3.8
